The term Ki denotes a dissociation constant, usually derived from enzyme kinetics or from competition with a known ligand.

Sequences of proteins named here, by UniProt entry; tags and fusion partners are left off.
UniProt P21554, whole entry: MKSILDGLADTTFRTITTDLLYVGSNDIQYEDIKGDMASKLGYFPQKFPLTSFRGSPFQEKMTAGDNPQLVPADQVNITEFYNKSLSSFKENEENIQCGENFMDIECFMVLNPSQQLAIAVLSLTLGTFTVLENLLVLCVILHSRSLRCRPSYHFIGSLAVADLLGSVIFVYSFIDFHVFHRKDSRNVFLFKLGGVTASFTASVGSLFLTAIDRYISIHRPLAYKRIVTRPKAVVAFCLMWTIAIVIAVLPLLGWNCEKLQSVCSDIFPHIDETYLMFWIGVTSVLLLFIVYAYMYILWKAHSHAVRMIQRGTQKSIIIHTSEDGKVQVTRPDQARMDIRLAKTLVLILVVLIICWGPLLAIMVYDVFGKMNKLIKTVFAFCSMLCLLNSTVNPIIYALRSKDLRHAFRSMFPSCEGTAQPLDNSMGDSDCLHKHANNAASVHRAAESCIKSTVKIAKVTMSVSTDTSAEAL

In publication PMC3516921 (ChemMedChem, 2012) one finds Ki data, which are given here for 1 substance.

The target of the assay is human cannabinoid type 1 receptor (Homo sapiens, UniProt P21554). Briefly: CB1 receptor competitive binding assay with [3H]CP-55,940. As to conditions: read-out: CB1 Ki.

A value given as a limit tells only on which side of the number the result lay.

On to SR144528 [reference compound], for which the inhibitory constant (Ki) was over 2820 nM.
